System: human primary T cells
Settings: Figure 4F

Cc1cc2ncnn2cc1Nc1ncc2c(n1)n(C1CCOCC1)c(=O)n2C [AZD-7648]
cell viability after genome editing: did not alleviate the genome-editing mediated reduction in cell viability

From patent EP4198126B1 (priority 2021, dated 2023)
